Experimental findings from patent publication US20160213739A1, “TREATMENTS FOR DISORDERS USING GUANYLATE CYCLASE C AGONISTS” (Ironwood Pharmaceuticals, Inc., priority 2011, published 2016) are described below.

First the molecules themselves.
B1: Peptide 1 (peptide)
peptide: CCSLCCNPACTGCY
modifications: not checked
B2: Peptide 3 (peptide)
peptide: CCELCCNPACTGCY
modifications: not checked
B3: Peptide 2 (peptide)
peptide: CCSLCCNPACTGC
modifications: not checked

The target in the assay is Guanylate cyclase C (GC-C) on intact human T84 cells (human), P25092. The assay is described as follows: cell-based or functional assay.
Consider B1, for which the cGMP response of T84 cells, EC50 at pH 5 (nM) was 9.8 nM.
B2: the cGMP response of T84 cells, EC50 at pH 5 (nM) was determined as 16 nM.
Then B3, with 10.4 nM.
